Series [1] is described as follows: Fold of selectivity, ratio of compound EC50/T3 EC50 for THRalpha to ratio of compound EC50/T3 EC50 for THRbeta.
The nature of series [2]: AUClast in ICR mouse liver at 10 mg/kg, po measured after 24 hrs by LC-MS/MS analysis. It is filed as ADME, organism-based. The following applies: in vivo.

With `CC(C)n1c(=O)ccc2c1ccn2-c1c(Cl)cc(-n2nc(C#N)c(=O)[nH]c2=O)cc1Cl`, the Ratio in series [1] amounted to 11.2. In addition, the AUClast in series [2] is 1124265 ng·h/g.

The record behind these values is ChEMBL document CHEMBL5247640 (J Med Chem, 2023).
